Assay results taken from patent US4396543A.

Test: toxicity test, LD50
Conditions: mouse, in vivo, iv; administered intravenously; read-out: LD50 (mg/kg) in Mice

Row | SMILES | LD50
1 | CCCCCCCCCCCCC(=O)N[C@@H](Cc1ccccc1)C(=O)N[C@@H](Cc1c[nH]c2ccccc12)C(=O)N[C@H](CC(N)=O)C(=O)N[C@@H](CC(=O)O)C(=O)N[C@@H]1C(=O)NCC(=O)N[C@@H](CCCN)C(=O)N[C@@H](CC(=O)O)C(=O)N[C@H](C)C(=O)N[C@@H](CC(=O)O)C(=O)NCC(=O)N[C@H](CO)C(=O)N[C@@H]([C@H](C)CC(=O)O)C(=O)N[C@@H](CC(=O)c2ccccc2N)C(=O)O[C@@H]1C [Compound 21] | 225 mg/kg
2 | CCCCCCCCCCCCCC(=O)N[C@@H](Cc1ccccc1)C(=O)N[C@@H](Cc1c[nH]c2ccccc12)C(=O)N[C@H](CC(N)=O)C(=O)N[C@@H](CC(=O)O)C(=O)N[C@@H]1C(=O)NCC(=O)N[C@@H](CCCN)C(=O)N[C@@H](CC(=O)O)C(=O)N[C@H](C)C(=O)N[C@@H](CC(=O)O)C(=O)NCC(=O)N[C@H](CO)C(=O)N[C@@H]([C@H](C)CC(=O)O)C(=O)N[C@@H](CC(=O)c2ccccc2N)C(=O)O[C@@H]1C [Compound 22] | 225 mg/kg
3 | CCCCCCCCCCC(=O)N[C@@H](Cc1ccccc1)C(=O)NCCC[C@@H]1NC(=O)CNC(=O)[C@@H](NC(=O)[C@H](CC(=O)O)NC(=O)[C@@H](CC(N)=O)NC(=O)[C@@H](N)Cc2c[nH]c3ccccc23)[C@@H](C)OC(=O)[C@H](CC(=O)c2ccccc2N)NC(=O)[C@H]([C@H](C)CC(=O)O)NC(=O)[C@@H](CO)NC(=O)CNC(=O)[C@H](CC(=O)O)NC(=O)[C@@H](C)NC(=O)[C@H](CC(=O)O)NC1=O [Compound 26] | 225 mg/kg
